One assay relates to B220+ cells. In words: B7-1 and B7-2 expression on B220+ cells (flow cytometry). Type of assay: cell-based. Conditions: freshly isolated splenocytes of IP immunized mice. As to the method: In flat-bottom 24-well culture plates (Corning), suspensions of 2.5×10^6 cells per ml were cultured with ConA (2 μg/ml) or without restimulation at 37° C. in supplemented RPMI 1640 medium as described above. 24, 72 and 120 hrs later, the cell cultures were then centrifuged, and the culture supernatants were harvested and kept frozen (−80° C.) until assayed. Pelleted cells were resuspended then stained with mAbs coupled to FITC or PE for immunofluorescent staining. IL-2, IL-4, IL-5, IL-10 and IFN-γ levels in supernatants from ConA-stimulated or unstimulated splenocytes were measured by capture ELISA. In brief, Maxisorp microtitre plates (Nunc Laboratories Ltd., Denmark) were coated with 50 μl of capture Ab at 2.0 μg/ml (rat anti-mouse IL-5, IL-10 and IFN-γ from Pharmingen and rat anti-mouse IL-4 from Endogen, Mass.) in Carbonate-bicarbonate buffer by overnight incubation at 4° C. Wells were then washed with PBS-T four times and blocked by addition of 10% FCS in PBS (2 hours, 37° C.). 50 μl of culture supernatants and appropriate recombinant standards were then added to individual well in duplicate. For standard curves, recombinant IL-5 (0 to 5,000 pg/ml), IL-10 (0 to 25,000 pg/ml), IFN-γ (0 to 20,000 pg/ml) (Pharmingen, Calif.) and IL-4 (0 to 1,500 pg/ml) (Endogen, Mass.) were used in duplicate. […] Absorbance was measured at 405 nm using a UVMax automatic microplate reader. […]

A further assay deals with splenocytes. In words: Cytokine assays of splenocyte culture supernatants (capture ELISA). Type of assay: cell-based, mice. Conditions: ConA (72 hrs). As to the method: In flat-bottom 24-well culture plates (Corning), suspensions of 2.5×10^6 cells per ml were cultured with ConA (2 μg/ml) or without restimulation at 37° C. in supplemented RPMI 1640 medium as described above. 24, 72 and 120 hrs later, the cell cultures were then centrifuged, and the culture supernatants were harvested and kept frozen (−80° C.) until assayed. Pelleted cells were resuspended then stained with mAbs coupled to FITC or PE for immunofluorescent staining. IL-2, IL-4, IL-5, IL-10 and IFN-γ levels in supernatants from ConA-stimulated or unstimulated splenocytes were measured by capture ELISA. In brief, Maxisorp microtitre plates (Nunc Laboratories Ltd., Denmark) were coated with 50 μl of capture Ab at 2.0 μg/ml (rat anti-mouse IL-5, IL-10 and IFN-γ from Pharmingen and rat anti-mouse IL-4 from Endogen, Mass.) in Carbonate-bicarbonate buffer by overnight incubation at 4° C. Wells were then washed with PBS-T four times and blocked by addition of 10% FCS in PBS (2 hours, 37° C.). 50 μl of culture supernatants and appropriate recombinant standards were then added to individual well in duplicate. For standard curves, recombinant IL-5 (0 to 5,000 pg/ml), IL-10 (0 to 25,000 pg/ml), IFN-γ (0 to 20,000 pg/ml) (Pharmingen, Calif.) and IL-4 (0 to 1,500 pg/ml) (Endogen, Mass.) were used in duplicate. […] Absorbance was measured at 405 nm using a UVMax automatic microplate reader.

As for Human serum albumin [HSA], the “percentage of the cells positive for both B7-2 and B220” value in the assay with B220+ cells is listed as 0.59±0.05 percentage. Besides, in the assay on B220+ cells (n=6), the “percentage of the cells positive for both B7-1 and B220” value is recorded as 0.95±0.07 percentage. The substance further came in with an IFN-g with splenocytes of 3358 ± 471 pg/mL.
